# Measured values from ChEMBL document CHEMBL5579853, “Recent progress in the development of hypoxia-inducible factor 2α (HIF-2α) modulators: Inhibitors, agonists, and degraders (2009-2024)” (Eur J Med Chem, 2024).
# Chains of the proteins cited; added tags and fusions are not shown. Lines headed by an entry give the natural chain unless they say otherwise; changes in a name come on top.
# UniProt Q99814: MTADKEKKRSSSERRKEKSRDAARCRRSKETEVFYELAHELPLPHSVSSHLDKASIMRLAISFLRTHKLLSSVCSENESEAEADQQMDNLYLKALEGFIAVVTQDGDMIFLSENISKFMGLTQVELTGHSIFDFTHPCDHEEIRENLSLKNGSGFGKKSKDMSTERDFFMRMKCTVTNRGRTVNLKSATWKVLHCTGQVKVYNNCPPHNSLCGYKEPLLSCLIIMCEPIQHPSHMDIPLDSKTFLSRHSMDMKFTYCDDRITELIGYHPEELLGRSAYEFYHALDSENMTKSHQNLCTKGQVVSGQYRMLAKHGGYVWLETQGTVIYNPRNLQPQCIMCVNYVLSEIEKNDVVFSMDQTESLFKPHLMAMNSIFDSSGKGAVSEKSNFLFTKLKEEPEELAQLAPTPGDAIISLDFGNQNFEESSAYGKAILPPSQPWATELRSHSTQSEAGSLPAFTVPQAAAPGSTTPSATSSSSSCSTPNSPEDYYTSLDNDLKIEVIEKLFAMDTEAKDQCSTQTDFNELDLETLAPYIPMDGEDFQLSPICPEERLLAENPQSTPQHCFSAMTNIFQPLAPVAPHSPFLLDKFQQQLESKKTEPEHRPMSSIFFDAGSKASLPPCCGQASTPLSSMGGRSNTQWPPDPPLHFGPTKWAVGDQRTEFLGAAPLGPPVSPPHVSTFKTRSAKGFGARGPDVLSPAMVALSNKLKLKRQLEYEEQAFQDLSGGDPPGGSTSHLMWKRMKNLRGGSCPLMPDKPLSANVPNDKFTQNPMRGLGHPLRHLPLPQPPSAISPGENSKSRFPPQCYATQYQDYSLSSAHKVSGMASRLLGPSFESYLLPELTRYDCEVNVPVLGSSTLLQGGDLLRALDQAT
# UniProt Q96SW2: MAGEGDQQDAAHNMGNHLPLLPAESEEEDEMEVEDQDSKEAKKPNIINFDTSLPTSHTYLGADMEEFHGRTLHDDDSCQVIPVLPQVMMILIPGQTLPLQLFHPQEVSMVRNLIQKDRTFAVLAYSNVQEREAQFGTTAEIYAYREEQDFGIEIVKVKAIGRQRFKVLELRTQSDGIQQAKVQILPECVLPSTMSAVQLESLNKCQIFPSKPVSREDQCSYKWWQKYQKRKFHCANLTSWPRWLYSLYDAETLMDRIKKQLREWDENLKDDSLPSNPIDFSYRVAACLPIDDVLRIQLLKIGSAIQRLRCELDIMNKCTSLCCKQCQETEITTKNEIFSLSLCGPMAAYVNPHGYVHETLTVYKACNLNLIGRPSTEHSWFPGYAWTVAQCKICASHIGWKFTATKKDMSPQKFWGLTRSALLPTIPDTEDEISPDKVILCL
# Biological target: Protein cereblon/Endothelial PAS domain-containing protein 1 (Homo sapiens) (UniProt Q99814+Q96SW2)
# Assay: PROTAC activity at CRBN/HIF-2alpha (unknown origin) at 1 uM relative to control
# Type: protein assay
row,Emax,Compound
1,51%,CS(=O)(=O)c1ccc(OCCOCCOCCn2cc(CNc3cccc4c3C(=O)N(C3CCC(=O)NC3=O)C4=O)nn2)c2c1[C@H](O)[C@H](F)C2 (some centres not stated)
2,54%,CS(=O)(=O)c1ccc(Oc2cc(C#N)cc(OCCOCCOCCn3cc(CNc4cccc5c4C(=O)N(C4CCC(=O)NC4=O)C5=O)nn3)c2)c2c1[C@H](O)[C@H](F)C2 (some centres not stated)
